The text below walks through data of paper PMC3391261, “Characteristic Features of Kynurenine Aminotransferase Allosterically Regulated by (Alpha)-Ketoglutarate in Cooperation with Kynurenine” (PLoS ONE, 2012).

Protein sequences, listed by entry. Tags and fused reporters are not part of them.
UniProt O57946, entry or part of it: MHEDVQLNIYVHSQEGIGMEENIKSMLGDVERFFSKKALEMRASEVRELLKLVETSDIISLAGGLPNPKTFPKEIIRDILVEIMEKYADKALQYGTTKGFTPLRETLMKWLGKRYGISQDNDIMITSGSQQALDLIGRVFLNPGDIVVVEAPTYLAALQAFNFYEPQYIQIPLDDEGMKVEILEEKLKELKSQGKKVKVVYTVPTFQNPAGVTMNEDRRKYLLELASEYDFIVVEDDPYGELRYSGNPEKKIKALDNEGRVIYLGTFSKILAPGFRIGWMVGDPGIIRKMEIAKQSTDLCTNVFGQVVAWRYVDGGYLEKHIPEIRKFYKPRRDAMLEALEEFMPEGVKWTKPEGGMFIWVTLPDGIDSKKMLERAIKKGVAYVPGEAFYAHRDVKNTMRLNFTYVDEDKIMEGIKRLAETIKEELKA

Read-outs that look alike come from different tables or passages of the source.

Experiment [1] has as its target T1, PhKAT (Pyrococcus horikoshii, UniProt O57946). The experiment can be described thus: KAT transaminase kinetics, KYNA production from KYN monitored at 332 nm. The method, then:
KYNA production was monitored spectrophotometrically using a U-2810 UV–Vis spectrophotometer (Hitachi).
The transaminase abilities of KAT were assayed by measuring the rate of the KYNA production. […] KYNA production was monitored by the increase in A332 at 25°C. The quantities of KYNA were determined spectroscopically with an extinction coefficient of 9.8 mM^−1⋅cm^−1 at 332 nm.

In experiment [2] the target is T1, PhKAT. The experiment can be described thus: Isothermal titration calorimetry for cofactor and substrate binding. Set-up: species or system Pyrococcus horikoshii OT3. The settings on record: for Kd: 2OG binding to PhKAT-PLP-KYN complex, sequential 4-site model, 35°C, pH 7.5. From the text:
To avoid air bubbles, we degassed solutions under vacuum before use. […] Power peaks were integrated, and the resultant reaction […] were plotted against the molar cofactor and/or substrate/protein ratios and fitted using the “sequential binding sites” model according to the manufacturer's instructions with origin version 5.0 (MicroCal Software), thus yielding the dissociation constant K d.

At PhKAT [1], `O=C(O)CCC(=O)C(=O)O` [2OG, 2-oxoglutaric acid] yielded a Ki of 20.1 µM. For the same compound, at PhKAT [2] (2OG binding to PhKAT-PLP complex (no KYN), judged from shape of binding curve, possibly beyond limit of ITC), the “dissociation constant of first binding site in PhKAT” value is given as “approximately femtomole order”. In addition, the Kd at PhKAT [2] (Kd1 (as substrate)) was determined as 0.238 µM; on PhKAT [2] (Kd3 (as allosteric effector)), 3.12 µM; on PhKAT [2] (Kd4 (as allosteric effector)), 1.09 µM; at PhKAT [2] (read-out: Kd2 (as substrate)), 15.8 µM.
